Test results: PubChem BioAssay AID435030 (The Scripps Research Institute Molecular Screening Center, 2010)
This is a selection; strong and weak results do not stand in their true shares. Some tests of the compounds listed are not included; inactive here does not mean inactive elsewhere. Activity calls are given as the source filed them. No stated cut-off is given here; in the data, active means inhibition above about 12%; inactive means the rest.

Assay: growth inhibition of E. coli expressing H. pylori AddAB, primary screen, AddAB inhibitor project, absorbance (AID 435030);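 further: 0% = vehicle wells of infected cells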
Settings: at 11.9 µM, active compounds read high

Compound	inhibition
CCN(CC)CC(C)C(C)OC(=O)C(O)(c1ccccc1)c1ccccc1 (centres undefined)	inactive: -0.94%
COc1cc(SC)ccc1C(=O)NCC1(N(C)C)CCCCC1	inactive: 0.98%
CC(C)N1C(=O)CC2(CCN(CCOC(=O)C(O)(c3ccccc3)c3ccccc3)CC2)C1=O	inactive: 1.66%
Cc1ccc(C(=O)NCC2(N3CCCCC3)CCCCC2)cc1	inactive: 2.51%
O=C(NCC1(N2CCCCC2)CCCCC1)c1cc([N+](=O)[O-])ccc1Cl	inactive: 2.7%
CN1[C@@H]2CC[C@H]1CC(OC(=O)C(O)(c1ccccc1)c1ccccc1)C2 (some centres undefined)	inactive: -1.01%
C=CCN1CCN(CCOC(=O)C(O)(c2ccccc2)c2ccccc2)CC1	inactive: 5.24%
O=C(NCC1(N2CCCCC2)CCCCC1)c1cc(F)c(F)cc1Cl	inactive: 3.57%
COc1ccc(C(=O)NCC2(N(C)C)CCCCC2)cc1	inactive: 0.08%
CCN1CCCC(OC(=O)C2(O)c3ccccc3C=Cc3ccccc32)C1 (centres undefined)	inactive: 2.26%
Cc1cc(C(=O)NCC2(N3CCCCC3)CCCCC2)ccc1[N+](=O)[O-]	inactive: -1.04%
O=C(NCC1(N2CCCCC2)CCCCC1)c1cccc(Br)c1	inactive: 1.02%
Cc1ccccc1C(=O)NCC1(N2CCCCC2)CCCCC1	inactive: 0.34%
CN(C)c1ccc(C(=O)NCC2(N(C)C)CCCCC2)cc1	inactive: 1.56%
CN(C)C1CCCC1OC(=O)C(O)(c1ccccc1)c1ccccc1 (centres undefined)	inactive: 1.72%
COc1cccc(C(=O)NCC2(N3CCCCC3)CCCCC2)c1	inactive: 0.34%
COc1ccc(Cl)cc1C(=O)NCC1(N(C)C)CCCCC1	inactive: 1.76%
O=C(NCC1(N2CCCCC2)CCCCC1)c1cccc(Cl)c1	inactive: 3.52%
CN(C)C1(CNC(=O)c2ccc(Br)cc2)CCCCC1	inactive: -0.41%
COc1cc(C(=O)NCC2(N(C)C)CCCCC2)c([N+](=O)[O-])cc1OC	inactive: 0.16%
COc1ccc(Br)c(C(=O)NCC2(N3CCCCC3)CCCCC2)c1	inactive: -0.88%
CC(C)Oc1ccc(C(=O)NCC2(N(C)C)CCCCC2)cc1	inactive: -0.25%
CN(C)c1cccc(C(=O)NCC2(N(C)C)CCCCC2)c1	inactive: 3%
O=C(OC1CN2CCC1CC2)C(CO)(c1ccccc1)c1ccccc1 (centres undefined)	inactive: -0.89%
